The target in assay [1] is gelatinase A-catalytic domain. As to the kind of experiment: gelatinase A catalytic domain hydrolysis of thiopeptolide, GA CD (T). Format: biochemical. The following applies: thiopeptolide substrate.
The target of assay [2] is gelatinase A-catalytic domain. As to the kind of experiment: gelatinase A catalytic domain hydrolysis of gelatin, GA CD (Gel). The format is biochemical. As to conditions: gelatin substrate.

The IC50 is the concentration that inhibits the measured activity by half. Read a low IC50 as greater potency in that assay. `CC(C)[C@H](NS(=O)(=O)c1ccc(-c2cccc(F)c2)cc1)C(=O)O` [Example 17, (S)-2-(3'-Fluoro-biphenyl-4-sulfonylamino)-3-methyl-butyric Acid]: the IC50 in assay [1] is 67 nM; in assay [2], 371 nM.

Turning to `CC(C)[C@H](NS(=O)(=O)c1ccc(-c2ccc(C(F)(F)F)cc2)cc1)C(=O)O` [Example 19, (S)-3-Methyl-2-(4'-trifluoromethyl-biphenyl-4-sulfonylamino)-butyric Acid], the IC50 in assay [1] amounted to 8 nM; in assay [2], 75 nM.

In the case of `Cc1ccc(-c2ccc(S(=O)(=O)N[C@H](C(=O)O)C(C)C)cc2)cc1` [Example 18, (S)-3-Methyl-2-(4'-methyl-biphenyl-4-sulfonylamino)-butyric Acid], the IC50 is 2 nM in assay [1] and 5 nM in assay [2].

These data come from US5756545A, “Biphenysulfonamide matrix metal alloproteinase inhibitors” (priority 1997, dated 1998).
